From patent US20240166643A1, “IMIDAZO[1,2-A]PYRIDINE COMPOUNDS AND THEIR USE IN THERAPY” (Imperial College Innovations Limited, priority 2020, published 2024)

Tested on: SU-DHL-10 cells
Test: Cell cytotoxicity in SU-DHL-10 cell line (CellTiter-Glo)
Assay type: cell-based, human
Details: read-out: SU-DHL-10 EC50, 48 h

`C[C@@H]1CN(c2ncc(F)c(N3CC(C(=O)NC(C)(C)c4cnc5ccccn45)C3)n2)CCN1` was tested, and the EC50 was 676 nM.
